Laboratory results published in PubChem BioAssay AID2717 (Broad Institute, 2010).
The list shows a part of the results, in another mix than the full data. Activity calls are given as the source filed them. Rule as the data show it: active = inhibition above about 75%; inconclusive = no clear call, values can overlap the other calls; inactive = below that; tested in HMLE shEcad cells.

Test: growth suppression of cancer stem-like cells – cell-based, luminescence, primary screen (AID 2717)
Conditions: cancer stem cell-like cells viability, at 7.5 µM, active compounds read high

Row | SMILES | inhibition
1 | Cc1ccc2nc3c(c(C)c2c1)CC(C(Cl)Cl)S3 (configuration not stated) | inactive: 22.3%
2 | CCOC(=O)c1ccc(NP(C)(=O)Oc2ccccc2)cc1 (configuration not stated) | inactive: -4.82%
3 | ClCCSc1nnc(-c2cccnc2)o1 | inactive: 12.1%
4 | COc1ccccc1OP(C)(=O)Nc1ccc(C)cc1 (configuration not stated) | inactive: -4.89%
5 | Cc1ccc(NP(C)(=O)Oc2ccccc2)c(C)c1 (configuration not stated) | inactive: -0.222%
6 | CC(C)c1ccc(OP(=O)(Nc2ccccn2)Oc2ccccc2F)cc1 (configuration not stated) | inactive: 8.71%
7 | COc1ccccc1OP(C)(=O)Nc1cc(Cl)ccc1C (configuration not stated) | inactive: -10.8%
8 | CC(C)NC(=O)NP(=O)(Oc1ccccc1)Oc1ccccc1 | inactive: 3.4%
9 | CCN(CC)C(=S)SC(NC=O)C(Cl)(Cl)Cl (configuration not stated) | inactive: -3.22%
10 | COc1ccc(OP(C)(=O)Nc2cccc(F)c2)cc1 (configuration not stated) | inactive: -1.7%
11 | O=[N+]([O-])c1cc([N+](=O)[O-])c(-c2ccn[nH]2)s1 | inactive: 10.4%
12 | Cc1cc(C)cc(OP(C)(N)=O)c1 (configuration not stated) | inactive: 5.37%
13 | Cc1c2c(nc3ccccc13)SC(C(Cl)Cl)C2 (configuration not stated) | inactive: 3.93%
14 | Cc1cc(=O)[nH]c(N[N+](=O)[O-])n1 | inactive: -4.05%
15 | CCN(CC)CCCOC(=O)C(O)(c1ccccc1)c1ccccc1 | inactive: -8.33%
16 | COc1ccc2nc(NP(=O)(c3ccccc3)c3ccccc3)sc2c1 | inactive: 4.86%
17 | COc1cc(I)ccc1[As](=O)(O)O | inactive: -7.03%
18 | COc1ccc(N/C(=N/P(=O)(N2CCOCC2)N2CCOCC2)N2CCOCC2)cc1 | inactive: -9.07%
19 | COP1(=S)c2c(C)nn(CCC#N)c2N=C(c2ccc(F)cc2)N1C (configuration not stated) | inactive: 5.83%
20 | Cc1cccc(C)c1OP(C)(=O)Nc1ccc(SC(F)(F)F)cc1 (configuration not stated) | inactive: 41.7%
21 | CP(=O)(Nc1ccc(SC(F)(F)F)cc1)Oc1ccc(Cl)cc1 (configuration not stated) | inactive: 43.2%

Row | SMILES | inhibition
22 | CP(=O)(Oc1ccccc1)OC(c1ccccc1)C(F)(F)F (configuration not stated) | inactive: -8.27%
23 | O=C(COc1ccccc1)OC1CN2CCC1CC2 (configuration not stated) | inactive: 9.97%
24 | CCc1ccc(OP(C)(=O)N2CCN(c3ccc([N+](=O)[O-])cc3)CC2)cc1 (configuration not stated) | inactive: 24.1%
25 | O=C(Nc1ccncc1[N+](=O)[O-])c1ccc([N+](=O)[O-])cc1[N+](=O)[O-] | inactive: -9.92%
26 | Cc1cc(C)cc(OP(C)(=O)Nc2ccc(SC(F)(F)F)cc2)c1 (configuration not stated) | inactive: 13.3%
27 | O=C(OC1CN2CCC1CC2)c1cccc([N+](=O)[O-])c1 (configuration not stated) | inactive: -15.1%
28 | CCOP(C)(=S)SCC(=O)NC(C)C(=O)O (configuration not stated) | inactive: -18%
29 | CCOC(=O)c1ccc(NP(C)(=O)Oc2ccc(OC)cc2)cc1 (configuration not stated) | inactive: -25.9%
30 | CCOC(=O)c1ccc(NC(=O)C(C)(CCl)SC)cc1 (configuration not stated) | inactive: 4.18%
31 | O=[N+]([O-])c1cc([N+](=O)[O-])c(O)c([N+](=O)[O-])c1.c1ccc(Oc2ccncc2)cc1 | inactive: -5.39%
32 | CCC(C)N(CC(C)C)C(=S)SC(NC(C)=O)C(Cl)(Cl)Cl (configuration not stated) | inactive: 17.9%
33 | CP(=O)(Nc1ccccn1)Oc1ccc(Cl)cc1 (configuration not stated) | inactive: 4.46%
34 | CCOC(=O)Nc1ccc([As](=O)(O)O)c(O)c1 | inactive: -11.3%
35 | Cc1cc(SC(NC(=O)c2ccccc2)C(Cl)(Cl)Cl)nc(C(C)C)n1 (configuration not stated) | inactive: -5.08%
36 | CP(=S)(Nn1cnnc1)Oc1ccccc1 (configuration not stated) | inactive: -6.81%
37 | CCOC(=O)Nc1cccc([As](=O)(O)O)c1 | inactive: 3.65%
38 | O=P(Nc1ccccn1)(c1cccc2ccccc12)c1cccc2ccccc12 | inactive: -8.33%
39 | Cc1cc(SC(NC=O)C(Cl)(Cl)Cl)ncn1 (configuration not stated) | inactive: -8.31%
40 | COc1ccccc1OP(C)(=O)Nc1ccccc1 (configuration not stated) | inactive: -1.96%
41 | CP(=O)(Nc1ccccc1Br)Oc1ccccc1 (configuration not stated) | inactive: 2.03%
42 | O=[N+]([O-])c1ccc(Nc2ccc(Oc3ccc([N+](=O)[O-])cc3[N+](=O)[O-])cc2)c([N+](=O)[O-])c1 | inactive: 15.2%
